Results as given in publication PMC9407234 (Proceedings of the National Academy of Sciences of the …, 2022).

Biological target: replication protein A (RPA), full-length heterotrimer of RPA70, RPA32 and RPA14
Experiment: ITC

Kd: 11 ± 0.5 µM
dH: -38 ± 2.9 kJ/mol
stoichiometry N: 2 ± 0.3
B1: XPA M70-2 (E106K/F112A), full length (natural protein)
chain: MAAADGALPEAAALEQPAELPASVRASIERKRQRALMLRQARLAARPYSATAAAATGGMANVKAAPKIIDTGGGFILEEEEEEEQKIGKVVHQPGPVMEFDYVICKECGKEAMDSYLMNHFDLPTCDNCRDADDKHKLITKTEAKQEYLLKDCDLEKREPPLKFIVKKNPHHSQWGDMKLYLKLQIVKRSLEVWGSQEALEEAKEVRQENREKMKQKKFDKKVKELRRAVRSSVWKRETIVHQHEYGPEENLEDDMYRKTCTMCGHELTYEKM
